Tested on: Female CD-1 albino mice
Assay: Hot plate test (central analgesia) in the mouse
Details: for Reaction time, basic: before treatment

`CCC(=O)O[C@](Cc1ccccc1)(c1ccccc1)[C@H](C)CN(C)C` [D-propoxyphene] was tested, and the “Reaction time after 30 min” value (10 mg/kg s.c.) was 14.4 ± 2.5 s, the “Reaction time after 30 min” value (20 mg/kg s.c., 15 animals) was 13.8 ± 1.2 s and the “Reaction time, basic” value (group 10 mg/kg s.c.) was 7.5 ± 0.7 s. The “Reaction time, basic” value (group 20 mg/kg s.c., 15 animals) was 6.9 ± 0.7 s.
